The subject of this series is NC(=O)C[C@H](N)C(=O)O. Description: purified protein, by the assay type. As to conditions: other: Asn, 37° C.

From patent US10821160B2, “L-asparaginase variants and fusion proteins with reduced L-glutaminase activity and enhanced stability” (priority 2016, dated 2020) come the findings set out here.

As usually defined, the Km is the substrate concentration at which the rate is half of its maximum.

“And” between values parts separate entries of the source, which are not always exact repeats. Equal values may be shown once.

With “Erwinia chrysanthemi L-asparaginase, wild type (ErA-WT), SEQ ID NO:1 (Dickeya chrysanthemi)”, the Km is 48 µM and 44.2 ± 1.6 µM and 47.5 ± 3.5 µM.
